Biological target: purified PLD1 (isoform not distinguished in Example 4) (human)
Experiment: cell-based or functional assay

human Rac1 with … at the amino terminus (from UniProt P63000 1-189)
activation of PLD1 at a maximally effective concentration (Rac1 5.3 M as printed): 13 fold
half-maximal activation of PLD1 activity (headgroup release assay): 1 M
stimulation of PLD1 activity: 13 fold
